# Laboratory results taken from patent US12180192B2, “Modulators of THR-β and methods of use thereof” (ALIGOS THERAPEUTICS, INC., priority 2019, dated 2024).
# Assays:
# [1] = system: CPT1A gene expression in Huh-7 cells; experiment: Huh-7 differential gene expression, CPT1A RT-qPCR (Assay 3); type: cell-based; conditions: Homo sapiens, Huh-7, 24 h, read-out: Activity category Assay 3 Emax
# Procedure: Huh-7 Differential Gene Expression (Assay 3)
# Fetal bovine serum (FBS) was incubated with washed resin (50 mg resin/mL FBS; resin weight is dry weight of resin prior to washing) for 5 hr at room temperature on a rotor. The FBS was separated from the resin via centrifugation and incubated with new, washed resin for 18 h at room temperature on a rotor.
# Cell Culture and Drug Treatment
# Huh-7 cells were cultured in DMEM (10-013-CM, Corning) supplemented with 10% FBS and 1% Pen-Strep at 37° C. under 5% C02. When 70-80% confluence was reached, the cells were removed by trypsinization. The medium was aspirated from the cell culture dish, the cell monolayer was washed with 1×PBS, and 0.05% trypsin, 0.53 mM EDTA (25-052-CV, Corning) solution was added to the dish. After 3 min incubation, the cells were detached completely by repeatedly pipetting solution onto the monolayer. Equal volume of DMEM supplemented with 10% rFBS and 1% Pen-Strep (TH-depleted DMEM) was added to the dish to inactivate the trypsin. The cell suspension was centrifuged at 350×g at room temperature for 3 min. The supernatant was aspirated out and the cell pellet was resuspended in TH-depleted DMEM. […] After 24 hr incubation, the media was replaced with treatment media. […]
# ΔRn values were obtained from the qPCRsoft384 1.0 software and CPT1A gene expression was quantified via the 2-ΔΔCt method. […]
# [2] = target: T1, human thyroid receptor beta ligand-binding domain (LBD) (Homo sapiens, UniProt P10828); experiment: TR-FRET thyroid receptor beta coactivator assay (THR biochemical assay, Assay 1); conditions: read-out: Activity category Assay 1 THRβ (Emax)
# T1 construct: purchased Invitrogen
# T1 sequence (P10828 217-461 limits assumed): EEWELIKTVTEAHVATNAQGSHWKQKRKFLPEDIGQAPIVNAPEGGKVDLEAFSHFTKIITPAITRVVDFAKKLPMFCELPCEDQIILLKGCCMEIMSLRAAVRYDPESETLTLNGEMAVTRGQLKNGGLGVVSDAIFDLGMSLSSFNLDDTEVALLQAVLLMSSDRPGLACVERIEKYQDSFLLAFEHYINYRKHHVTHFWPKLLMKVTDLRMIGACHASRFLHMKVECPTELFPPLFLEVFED
# Excerpt: The TR-FRET thyroid receptor beta coactivator assay was used with slight, optimized modifications of the manufacturer's protocol (Invitrogen). The assay uses a terbium-labeled anti-GST antibody, a glutathione-S-transferase (GST) tagged human thyroid receptor, beta or alpha, ligand-binding domain (LBD), and a fluorescein labeled SRC2-2 coactivator peptide. […] The energy transfer is detected as an increase in the fluorescence emission of the fluorescein acceptor, and a decrease in the fluorescence emission of the terbium donor. The assay is performed in a 384-well black plate in a final volume of 20 μL. Serial dilution of various test agonists was performed in DMSO (1% final DMSO concentration) and added to the test plate. Thyroid receptor beta LBD is added to the plate at a final concentration of 1 nM, followed by the mixture of the fluorescein labeled SRC2-2 coactivator peptide, and the terbium-labeled anti-GST antibody at final concentrations of 200 nM and 2 nM respectively. The assay is incubated for 1 hr at rt protected from light.
# [3] = target: T2, THR beta (Homo sapiens, UniProt P10828); experiment: HEK293T THR beta/RXR luciferase reporter assay (Assay 2); type: cell-based; conditions: HEK-293T, read-out: Activity category Assay 2 THRβ (Emax)
# T2 construct: expressed in transfected cells; host or cells: HEK293T (ATCC CRL-3216)
# T2 sequence (P10828 1-461): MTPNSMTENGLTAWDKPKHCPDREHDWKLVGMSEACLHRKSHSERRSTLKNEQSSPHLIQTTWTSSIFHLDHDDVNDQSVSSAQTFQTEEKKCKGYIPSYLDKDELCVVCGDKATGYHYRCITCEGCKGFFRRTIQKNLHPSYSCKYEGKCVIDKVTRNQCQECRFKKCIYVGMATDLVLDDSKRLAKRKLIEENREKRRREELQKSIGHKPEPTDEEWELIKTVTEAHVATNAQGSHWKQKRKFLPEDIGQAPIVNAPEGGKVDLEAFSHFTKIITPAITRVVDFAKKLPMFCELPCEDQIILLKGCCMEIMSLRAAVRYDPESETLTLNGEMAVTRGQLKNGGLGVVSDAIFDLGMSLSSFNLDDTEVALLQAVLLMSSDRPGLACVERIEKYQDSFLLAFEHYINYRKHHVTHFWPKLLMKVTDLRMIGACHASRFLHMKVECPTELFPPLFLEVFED
# T2 sequence (P19793 1-462 partner): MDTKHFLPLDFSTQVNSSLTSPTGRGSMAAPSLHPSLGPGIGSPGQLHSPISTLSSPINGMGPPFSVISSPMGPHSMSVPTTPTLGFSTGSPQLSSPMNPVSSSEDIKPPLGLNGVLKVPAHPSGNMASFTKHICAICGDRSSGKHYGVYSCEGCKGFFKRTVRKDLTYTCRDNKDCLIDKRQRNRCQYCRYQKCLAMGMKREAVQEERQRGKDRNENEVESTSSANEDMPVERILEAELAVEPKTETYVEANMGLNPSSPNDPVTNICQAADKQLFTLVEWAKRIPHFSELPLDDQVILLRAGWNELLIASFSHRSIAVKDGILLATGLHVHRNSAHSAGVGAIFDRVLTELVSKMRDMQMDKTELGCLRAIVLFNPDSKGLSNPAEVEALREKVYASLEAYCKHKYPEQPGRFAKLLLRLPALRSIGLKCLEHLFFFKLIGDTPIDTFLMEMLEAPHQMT
# Procedure: HEK293T Reporter THRalpha/Beta/RXR Reporter Assay (Assay 2)
# The purpose of this assay is to evaluate the effect of compounds on the thyroid hormone nuclear receptor pathway in HEK293T cells. To this end, HEK293T cells are transiently transfected with a luciferase reporter under the control of the thyroid response element (TRE), an RXR expression plasmid and either a THR alpha or THR beta expression plasmid. Transfected cells are stimulated with test compounds for 18-24 hours before activation of the thyroid hormone pathway is measured via a luciferase read-out.
# Procedure. […] Ten five-fold dilutions of test compounds are prepared in DMSO and 30 nL are dispensed to the cells. […] Approximately 18-24 h after compound addition, 384 well plates are allowed to adjust to rt, 30 μL One-Glo (Promega catalog #E6120) is added to each well and luminescence is measured on a Perkin Elmer Enspire plate reader. Percent agonism is calculated using the following equation: 100× (sample-negative control)/(positive control-negative control).
Compound,Emax [1] [%],Emax [2] [%],Emax [3] [%]
"CC(C)c1cc(Oc2c(Cl)cc(-n3nc(N)c(=O)[nH]c3=O)cc2Cl)n[nH]c1=O [Compound 10, 6-amino-2-[3,5-dichloro-4-[(5-isopropyl-6-oxo-1H-pyridazin-3-yl)oxy]phenyl]-4H-1,2,4-tri-azine-3,5-dione]",50 to 75,,
"CC(C)c1cc(Oc2c(Cl)cc(-n3nc(CC(=O)O)c(=O)[nH]c3=O)cc2Cl)n[nH]c1=O [Compound 13, 2-(2-(3,5-dichloro-4-((5-isopropyl-6-oxo-1,6-dihydropyridazin-3-yl)oxy)phenyl)-3,5-dioxo-2,3,4,5-tetra-hydro-1,2,4-triazin-6-yl)acetic acid]",,< 50,> 75
